Test results: patent publication US20030206932A1, “Novel topical compositions” (priority 1994, published 2003)

Test: Solubility parameter δ estimated from tabulated molecular substituent constants (Fedors)
Details: difference to the solubility parameter of retinol
From the text: Solubility attributes of two or more materials with respect to each other are generally reflected in the “solubility parameter”, δ, which is expressed in the units (cal/cm^3)^1/2.
The value of the solubility parameter can be estimated from tabulated molecular substituent constants such as those described by Fedors. These substituent constants can be found in Solubility and Related Properties by Kenneth C. […] Generally, according to Textbook of Polymer Science, 2nd Ed., Billmeyer, solubility can be expected if the difference of the solubility parameters of two materials is less than about 2 units.

| δN − δRETINOL | Substance |
| --- | --- |
| −0.31 (cal/cm^3)^1/2 | C12 Alkyl Benzoate |
| −0.40 (cal/cm^3)^1/2 | C15 Alkyl Benzoate |
